Among the data in PMC4309955 (Scientific Reports, 2015) are IC50 values, retold here.

SMILES strings stand for the structures.

Test [1] concerns the target T1, human AT1R (angiotensin II type 1 receptor) (Homo sapiens, UniProt P30556). As to the kind of experiment: inhibition of AngII-induced G protein activation, cell impedance. It is filed as cell-based.
The target of test [2] is T1, human AT1R (angiotensin II type 1 receptor). The experiment in a line: inhibition of AngII-induced beta-arrestin activation, cell impedance. The class given is cell-based.

For `CCCc1nc2c(C)cc(-c3nc4ccccc4n3C)cc2n1Cc1ccc(-c2ccccc2C(=O)O)cc1` [Telmisartan], the IC50 was 2 pM in test [1] and 6 pM in test [2].
